Test results from PMC11594144, “Biophysical Analysis of Vip3Aa Toxin Mutants Before and After Activation” (2024).

How the values were obtained:
[1] = target: Vip3Aa64 protoxin E168C (Bacillus thuringiensis); assay: mass photometry
[2] = target: Vip3Aa64 protoxin E168C (Bacillus thuringiensis); assay: AUC
[3] = target: Vip3Aa64 protoxin E168C:N242C (Bacillus thuringiensis); assay: mass photometry
[4] = target: Vip3Aa64 protoxin E168C:N242C (Bacillus thuringiensis); assay: AUC
[5] = target: Vip3Aa64 protoxin F229Y (Bacillus thuringiensis); assay: mass photometry
[6] = target: Vip3Aa64 protoxin F229Y (Bacillus thuringiensis); assay: AUC
[7] = target: Vip3Aa64 protoxin N242C (Bacillus thuringiensis); assay: mass photometry
[8] = target: Vip3Aa64 protoxin N242C (Bacillus thuringiensis); assay: AUC
[9] = target: Vip3Aa64 protoxin T167C (Bacillus thuringiensis); assay: mass photometry
[10] = target: Vip3Aa64 protoxin T167C (Bacillus thuringiensis); assay: AUC

Vip3Aa64 protoxin E168C (natural protein)
stoichiometry N [1]: 4 and 2 | stoichiometry N [2]: 4 and 2

Vip3Aa64 protoxin E168C:N242C (natural protein)
stoichiometry N [3]: 4 | stoichiometry N [4]: 4

Vip3Aa64 protoxin F229Y (natural protein)
stoichiometry N [5]: 4 and 2 | stoichiometry N [6]: 4 and 2

Vip3Aa64 protoxin N242C (natural protein)
stoichiometry N [7]: 4 | stoichiometry N [8]: 4

Vip3Aa64 protoxin T167C (natural protein)
stoichiometry N [9]: 4 | stoichiometry N [10]: 4

Values joined by “and” are separate entries in the source; they are usually repeats but may differ in a detail not shown here. Equal entries are not always repeated.
